Among the data in PubChem BioAssay AID2718 (Broad Institute, 2010) are inhibition values, retold here.

Amino acid sequences for entries named in this document (tags omitted).
UniProt O15379, whole entry: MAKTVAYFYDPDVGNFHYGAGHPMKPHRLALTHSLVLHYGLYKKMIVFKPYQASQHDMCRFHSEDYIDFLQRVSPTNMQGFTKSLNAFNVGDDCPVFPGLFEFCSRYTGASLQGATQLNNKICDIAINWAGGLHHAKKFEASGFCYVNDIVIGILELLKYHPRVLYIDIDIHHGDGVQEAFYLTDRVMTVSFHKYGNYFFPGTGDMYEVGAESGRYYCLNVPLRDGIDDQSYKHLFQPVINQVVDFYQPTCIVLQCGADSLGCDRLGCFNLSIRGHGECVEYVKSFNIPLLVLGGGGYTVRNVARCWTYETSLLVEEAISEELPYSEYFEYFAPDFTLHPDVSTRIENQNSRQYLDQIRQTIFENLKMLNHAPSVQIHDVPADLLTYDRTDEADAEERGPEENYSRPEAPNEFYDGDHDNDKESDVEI

Structures are written as SMILES. The entries are a selection whose mix differs from that of the whole data set. Activity calls are given as the source filed them. Rule as the data show it: active = inhibition above about 26% (passing the limit was not always enough); inconclusive = no clear call, values can overlap the other calls.

For the test, the target named is Histone deacetylase 3 (Homo sapiens) (UniProt O15379). The test is described as follows: HDAC3 deacetylase inhibitors, primary screen, biochemical, fluorescence, cell-free homogeneous (AID 2718). The note with it: recombinant HDAC3, fluorogenic peptide/trypsin coupled, at 8.3 µM, hits give high values.
Broadly, the inhibition is the relative decrease from the control value, in per cent. Take `COc1cc(OC)c(C(=O)NCC2(N(C)C)CCCCC2)cc1OC`: the inhibition was inactive: 2.87%. `O=C(NCC1(N2CCOCC2)CCCCC1)c1cc(F)c(F)cc1Cl`: the inhibition is inactive: -1.45%.

With `CC(C)c1ccc(NC2CCN(C(=O)OC(C)(C)C)CC2)cc1`, the inhibition is inactive: 8.34%. The figure for `COc1ccc(CN(CCCl)CCCl)cc1Cl` is inactive: 11.2%; for `CN(C)c1cccc(C(=O)NCC2(N3CCCCC3)CCCCC2)c1` it is inactive: -0.513%.

For `CCCOc1ccc(C(=O)NCC2(N(C)C)CCCCC2)cc1OC`, the inhibition was inactive: -1.62%. The result for `CN1CCC(Nc2cccc(F)c2)CC1` reads inactive: -22.4%; that for `O=C(NCC1(N2CCCCC2)CCCCC1)c1cncc(Br)c1`, inactive: 3.26%. Take `CCN1CCC(Nc2ccc(Cl)cc2)CC1`: the inhibition was inactive: -2.7%. As for `N#CC1(Nc2ccccc2)CCN(CCc2ccccc2)CC1`, the inhibition is inactive: -2.15%. Regarding `O=C(NCC1(N2CCCCC2)CCCCC1)c1ccc(OC(F)F)cc1`, the inhibition was inactive: 2.5%. On to `COc1cc(C(=O)NCC2(N3CCCCC3)CCCCC2)ccc1OC(F)F`, for which the inhibition is inactive: -0.577%. The figure for `O=C(NCC1(N2CCOCC2)CCCCC1)c1cc(=O)[nH]c2ccccc12` is inactive: 4.89%. The result for `CN1CCN(CCOC(=O)C(O)(c2ccccc2)c2ccccc2)CC1` reads inactive: 1.81%; that for `COc1ccc(NC2CCN(C(=O)OC(C)(C)C)CC2)cc1`, inactive: 2.21%. The result for `O=C(NCC1(N2CCCCC2)CCCCC1)c1cccc(C(F)(F)F)c1` reads inactive: 2.92%; that for `O=C(NCC1(N2CCCCC2)CCCCC1)c1ccc(F)cc1`, inactive: 1.15%. As to `COc1ccc(NC2CCN(CCc3ccccc3)CC2)c(OC)c1`, the inhibition was inactive: -4.13%. With `CCOC(=O)N1CCC(Nc2ccc(F)cc2)CC1`, the inhibition is inactive: -12.2%. As for `CCOc1ccc(C)cc1CN(CCCl)CCCl`, the inhibition is inactive: 0.781%. The figure for `CCOC(=O)N1CCC(Nc2cccc(C)c2)CC1` is inactive: -3.47%; for `COc1cc(C(=O)NCC2(N(C)C)CCCCC2)ccc1OC(F)F` it is inactive: -1.31%. Consider `Cc1ccc(OCC(C)C)c(CN(CCCl)CCCl)c1`, for which the inhibition is inactive: -1.27%.

Turning to `CSc1ccccc1C(=O)NCC1(N2CCCCC2)CCCCC1`, the inhibition is inactive: 6.41%.

As to `COc1ccc(C(=O)NCC2(N3CCCCC3)CCCCC2)cc1`, the inhibition was inactive: -0.418%. The result for `CC(C)(C)OC(=O)N1CCC(N(C(=O)c2ccccc2)c2ccc(F)cc2)CC1` reads inactive: -9.08%; that for `COc1ccc(C(=O)NCC2(N3CCCCC3)CCCCC2)c(OC)c1OC`, inactive: 2.07%.

`O=C(NCC1(N2CCCCC2)CCCCC1)c1ccc(=O)[nH]c1`: the inhibition was inactive: 4.45%. The figure for `O=C(NCC1(N2CCCCC2)CCCCC1)c1cccs1` is inactive: 2.04%. In the case of `O=C(NCC1(N2CCCCC2)CCCCC1)c1ccc(Cl)s1`, the inhibition was inactive: 2.84%.

As to `N#CC1(Nc2ccccc2)CCN(Cc2ccccc2)CC1`, the inhibition is inactive: 0.453%. The figure for `O=C(OC1CN2CCC1CC2)C1c2ccccc2Oc2ccccc21` (stereo not drawn) is inactive: 0.367%; for `COc1ccc(Cl)cc1C(=O)NCC1(N2CCOCC2)CCCCC1` it is inactive: -4.53%; for `CCOC(=O)N1CCC(Nc2ccc(OC)cc2)CC1` it is inactive: 2.59%. The figure for `O=C(NCC1(N2CCCCC2)CCCCC1)c1ccc(Cl)nc1` is inactive: 1.74%; for `Cc1cc(C)cc(N(C(=O)c2ccccc2)C2CCN(C(=O)OC(C)(C)C)CC2)c1` it is inactive: 2.5%; for `O=C(NCC1(N2CCOCC2)CCCCC1)c1cc2ccccc2o1` it is inactive: -1.51%. The figure for `CC(C)(C)OC(=O)N1CCC(Nc2ccccc2)CC1` is inactive: 1.35%. Regarding `O=C(O)C1(Nc2ccccc2)CCN(Cc2ccccc2)CC1`, the inhibition was inactive: -1.69%. The result for `CCCOc1ccc(C(=O)NCC2(N(C)C)CCCCC2)cc1` reads inactive: 0.557%. Regarding `CCOc1ncccc1C(=O)NCC1(N2CCOCC2)CCCCC1`, the inhibition is inactive: 2.47%. The result for `CN1CCC(Nc2ccc(F)c(Cl)c2)CC1` reads inactive: -3.25%. The result for `CN1CCC(Nc2ccc(Cl)cc2)CC1` reads inactive: 0.358%; that for `CCCOc1ccc(C)cc1CN(CCCl)CCCl`, inactive: -6.17%; that for `COc1cc(OC)cc(C(=O)NCC2(N3CCOCC3)CCCCC2)c1`, inactive: 1.25%.

`COc1cccc(C(=O)N(c2cc(C)cc(C)c2)C2CCN(C(=O)OC(C)(C)C)CC2)c1`: the inhibition is inactive: 3.12%. The result for `CCC(CO)(C(=O)OC1CN2CCC1CC2)c1ccccc1` (stereo not drawn) reads inactive: 1.23%; that for `Cc1ccc(C(=O)NCC2(N3CCCCC3)CCCCC2)o1`, inactive: 5.4%.

Regarding `Fc1ccccc1NC1CCN(Cc2ccccc2)CC1`, the inhibition is inactive: -1.7%. For the compound `COc1cc(OC)cc(C(=O)NCC2(N3CCCCC3)CCCCC2)c1`, the inhibition is inactive: 0.554%. The figure for `O=C(NCC1(N2CCCCC2)CCCCC1)c1ccco1` is inactive: -3.17%; for `CN(C)c1ccc(C(=O)NCC2(N3CCCCC3)CCCCC2)cc1` it is inactive: 4.84%; for `CCN1CCC(Nc2cccc(F)c2)CC1` it is inactive: -0.51%. The figure for `CC(C)(C)OC(=O)N1CCC(N(C(=O)c2ccccc2)c2ccc(Cl)cc2)CC1` is inactive: 9.73%; for `c1ccc(CN2CCC(Nc3ccccc3)CC2)cc1` it is inactive: -1.97%; for `CCCN1CCC(Nc2cc(OC)cc(OC)c2)CC1` it is inactive: -4.17%.

For the compound `COc1ccc(C(=O)NCC2(N3CCOCC3)CCCCC2)cc1OC`, the inhibition was inactive: -2.5%. The figure for `COc1cc(C(=O)NCC2(N3CCOCC3)CCCCC2)cc(OC)c1C` is inactive: -1.52%; for `O=C(NCC1(N2CCOCC2)CCCCC1)c1cc(Br)ccc1Cl` it is inactive: -0.758%. The result for `CCc1cc(C(=O)NCC2(N3CCCCC3)CCCCC2)sc1C` reads inactive: -0.856%. The figure for `O=C(OC1CN2CCC1CC2)C1c2ccccc2C=Cc2ccccc21` (stereo not drawn) is inactive: -15.7%; for `CCOC(=O)N1CCC(Nc2ccc(C)cc2)CC1` it is inactive: -6.41%.

As to `N/C(=N\O)c1c(N)no[n+]1[O-]`, the inhibition was inactive: 0.00308%.
